Data: the Human Domainome abundance scans (Beltran et al. 2025)
± gives the uncertainty stated by the source.

B1: X-ray repair cross-complementing protein 6, residues 558 to 609; numbered along this chain, P12956 (parent)
chain: EYSEEELKTHISKGTLGKFTVPMLKEACRAYGLKSGLKKQELLEALTKHFQD

Variants of: B1
Assay: abundance fitness (aPCA) (normalised: wild type 0, dead -1); higher = more abundant; growth selection in yeast, the domain comes from the species named
Settings: Homo sapiens

Question: For EYSEEELKTHISKGTLGKFTVPMLKEACRAYGLKSGLGKQELLEALTKHFQD [K38G], which abundance fitness is on record?
Answer: Its abundance fitness is -0.062 ± 0.039.

Question: For EYSEEELKTHISKGTLGKFTVPMLKEACRAYGLKSGLNKQELLEALTKHFQD [K38N], which abundance fitness is on record?
Answer: Its abundance fitness is -0.178 ± 0.11.

Question: Which abundance fitness does the source give for EYSEEELKTHISKGTLGKFTVPMLKEACRAYGLKSGLSKQELLEALTKHFQD [K38S] here?
Answer: The abundance fitness was -0.133 ± 0.064.

Question: For EYSEEELKTHISKGTLGKFTVPMLKEACRAYGLKSGLMKQELLEALTKHFQD [K38M], which abundance fitness is on record?
Answer: Its abundance fitness is -0.233 ± 0.077.

Question: With EYSEEELKTHISKGTLGKFTVPMLKEACRAYGLKSGLLKQELLEALTKHFQD [K38L] as the variant, how does the abundance fitness read?
Answer: Its abundance fitness is -0.107 ± 0.044.

Question: For EYSEEELKTHISKGTLGKFTVPMLKEACRAYGLKSGLVKQELLEALTKHFQD [K38V], which abundance fitness is on record?
Answer: The abundance fitness was -0.198 ± 0.04.

Question: With EYSEEELKTHISKGTLGKFTVPMLKEACRAYGLKSGLFKQELLEALTKHFQD [K38F] as the variant, how does the abundance fitness read?
Answer: The abundance fitness was -0.573 ± 0.12.

Question: Which abundance fitness does the source give for EYSEEELKTHISKGTLGKFTVPMLKEACRAYGLKSGLWKQELLEALTKHFQD [K38W] here?
Answer: Its abundance fitness is -0.79 ± 0.063.

Question: For EYSEEELKTHISKGTLGKFTVPMLKEACRAYGLKSGLIKQELLEALTKHFQD [K38I], which abundance fitness is on record?
Answer: Its abundance fitness is -0.299 ± 0.049.

Question: Which abundance fitness does the source give for EYSEEELKTHISKGTLGKFTVPMLKEACRAYGLKSGLAKQELLEALTKHFQD [K38A] here?
Answer: The abundance fitness was -0.14 ± 0.069.

Question: For EYSEEELKTHISKGTLGKFTVPMLKEACRAYGLKSGLHKQELLEALTKHFQD [K38H], which abundance fitness is on record?
Answer: The abundance fitness was -0.147 ± 0.1.

Question: Which abundance fitness does the source give for EYSEEELKTHISKGTLGKFTVPMLKEACRAYGLKSGLRKQELLEALTKHFQD [K38R] here?
Answer: The abundance fitness was -0.101 ± 0.045.

Question: With EYSEEELKTHISKGTLGKFTVPMLKEACRAYGLKSGLQKQELLEALTKHFQD [K38Q] as the variant, how does the abundance fitness read?
Answer: Its abundance fitness is -0.055 ± 0.082.

Question: Which abundance fitness does the source give for EYSEEELKTHISKGTLGKFTVPMLKEACRAYGLKSGLCKQELLEALTKHFQD [K38C] here?
Answer: The abundance fitness was -0.048 ± 0.047.

Question: Which abundance fitness does the source give for EYSEEELKTHISKGTLGKFTVPMLKEACRAYGLKSGLDKQELLEALTKHFQD [K38D] here?
Answer: Its abundance fitness is -0.04 ± 0.072.

Question: For EYSEEELKTHISKGTLGKFTVPMLKEACRAYGLKSGLYKQELLEALTKHFQD [K38Y], which abundance fitness is on record?
Answer: Its abundance fitness is -0.343 ± 0.11.

Question: Which abundance fitness does the source give for EYSEEELKTHISKGTLGKFTVPMLKEACRAYGLKSGLTKQELLEALTKHFQD [K38T] here?
Answer: The abundance fitness was -0.091 ± 0.082.

Question: Which abundance fitness does the source give for EYSEEELKTHISKGTLGKFTVPMLKEACRAYGLKSGLPKQELLEALTKHFQD [K38P] here?
Answer: Its abundance fitness is -0.256 ± 0.097.

Question: Which abundance fitness does the source give for EYSEEELKTHISKGTLGKFTVPMLKEACRAYGLYSGLKKQELLEALTKHFQD [K34Y] here?
Answer: The abundance fitness was -0.148 ± 0.045.

Question: With EYSEEELKTHISKGTLGKFTVPMLKEACRAYGLHSGLKKQELLEALTKHFQD [K34H] as the variant, how does the abundance fitness read?
Answer: Its abundance fitness is -0.112 ± 0.037.

Question: For EYSEEELKTHISKGTLGKFTVPMLKEACRAYGLLSGLKKQELLEALTKHFQD [K34L], which abundance fitness is on record?
Answer: The abundance fitness was -0.344 ± 0.035.

Question: For EYSEEELKTHISKGTLGKFTVPMLKEACRAYGLTSGLKKQELLEALTKHFQD [K34T], which abundance fitness is on record?
Answer: The abundance fitness was -0.116 ± 0.04.

Question: Which abundance fitness does the source give for EYSEEELKTHISKGTLGKFTVPMLKEACRAYGLESGLKKQELLEALTKHFQD [K34E] here?
Answer: The abundance fitness was -0.038 ± 0.071.

Question: With EYSEEELKTHISKGTLGKFTVPMLKEACRAYGLSSGLKKQELLEALTKHFQD [K34S] as the variant, how does the abundance fitness read?
Answer: The abundance fitness was -0.095 ± 0.034.

Question: With EYSEEELKTHISKGTLGKFTVPMLKEACRAYGLPSGLKKQELLEALTKHFQD [K34P] as the variant, how does the abundance fitness read?
Answer: The abundance fitness was 0 ± 0.037.

Question: For EYSEEELKTHISKGTLGKFTVPMLKEACRAYGLFSGLKKQELLEALTKHFQD [K34F], which abundance fitness is on record?
Answer: The abundance fitness was -0.347 ± 0.044.

Question: With EYSEEELKTHISKGTLGKFTVPMLKEACRAYGLWSGLKKQELLEALTKHFQD [K34W] as the variant, how does the abundance fitness read?
Answer: The abundance fitness was -0.546 ± 0.049.

Question: For EYSEEELKTHISKGTLGKFTVPMLKEACRAYGLVSGLKKQELLEALTKHFQD [K34V], which abundance fitness is on record?
Answer: Its abundance fitness is -0.128 ± 0.049.

Question: Which abundance fitness does the source give for EYSEEELKTHISKGTLGKFTVPMLKEACRAYGLISGLKKQELLEALTKHFQD [K34I] here?
Answer: The abundance fitness was -0.228 ± 0.04.

Question: Which abundance fitness does the source give for EYSEEELKTHISKGTLGKFTVPMLKEACRAYGLRSGLKKQELLEALTKHFQD [K34R] here?
Answer: The abundance fitness was -0.09 ± 0.036.

Question: For EYSEEELKTHISKGTLGKFTVPMLKEACRAYGLDSGLKKQELLEALTKHFQD [K34D], which abundance fitness is on record?
Answer: The abundance fitness was -0.021 ± 0.058.

Question: With EYSEEELKTHISKGTLGKFTVPMLKEACRAYGLNSGLKKQELLEALTKHFQD [K34N] as the variant, how does the abundance fitness read?
Answer: The abundance fitness was -0.042 ± 0.043.

Question: Which abundance fitness does the source give for EYSEEELKTHISKGTLGKFTVPMLKEACRAYGLASGLKKQELLEALTKHFQD [K34A] here?
Answer: Its abundance fitness is -0.107 ± 0.047.

Question: Which abundance fitness does the source give for EYSEEELKTHISKGTLGKFTVPMLKEACRAYGLCSGLKKQELLEALTKHFQD [K34C] here?
Answer: The abundance fitness was -0.073 ± 0.061.

Question: Which abundance fitness does the source give for EYSEEELKTHISKGTLGKFTVPMLKEACRAYGLKSGLKKDELLEALTKHFQD [Q40D] here?
Answer: Its abundance fitness is 0.122 ± 0.093.

Question: Which abundance fitness does the source give for EYSEEELKTHISKGTLGKFTVPMLKEACRAYGLKSGLKKEELLEALTKHFQD [Q40E] here?
Answer: The abundance fitness was 0.102 ± 0.062.

Question: Which abundance fitness does the source give for EYSEEELKTHISKGTLGKFTVPMLKEACRAYGLKSGLKKFELLEALTKHFQD [Q40F] here?
Answer: The abundance fitness was -0.378 ± 0.096.

Question: With EYSEEELKTHISKGTLGKFTVPMLKEACRAYGLKSGLKKCELLEALTKHFQD [Q40C] as the variant, how does the abundance fitness read?
Answer: The abundance fitness was -0.123 ± 0.048.

Question: Which abundance fitness does the source give for EYSEEELKTHISKGTLGKFTVPMLKEACRAYGLKSGLKKAELLEALTKHFQD [Q40A] here?
Answer: The abundance fitness was -0.063 ± 0.042.

Question: Which abundance fitness does the source give for EYSEEELKTHISKGTLGKFTVPMLKEACRAYGLKSGLKNQELLEALTKHFQD [K39N] here?
Answer: Its abundance fitness is -0.998 ± 0.26.

Question: Which abundance fitness does the source give for EYSEEELKTHISKGTLGKFTVPMLKEACRAYGLKSGLKWQELLEALTKHFQD [K39W] here?
Answer: The abundance fitness was -0.893 ± 0.07.

Question: Which abundance fitness does the source give for EYSEEELKTHISKGTLGKFTVPMLKEACRAYGLKSGLKMQELLEALTKHFQD [K39M] here?
Answer: The abundance fitness was -1.09 ± 0.23.

Question: For EYSEEELKTHISKGTLGKFTVPMLKEACRAYGLKSGLKIQELLEALTKHFQD [K39I], which abundance fitness is on record?
Answer: Its abundance fitness is -0.835 ± 0.22.

Question: For EYSEEELKTHISKGTLGKFTVPMLKEACRAYGLKSGLKSQELLEALTKHFQD [K39S], which abundance fitness is on record?
Answer: Its abundance fitness is -0.648 ± 0.058.

Question: Which abundance fitness does the source give for EYSEEELKTHISKGTLGKFTVPMLKEACRAYGLKSGLKVQELLEALTKHFQD [K39V] here?
Answer: Its abundance fitness is -0.572 ± 0.036.

Question: With EYSEEELKTHISKGTLGKFTVPMLKEACRAYGLKSGLKRQELLEALTKHFQD [K39R] as the variant, how does the abundance fitness read?
Answer: The abundance fitness was -0.12 ± 0.039.

Question: For EYSEEELKTHISKGTLGKFTVPMLKEACRAYGLKSGLKLQELLEALTKHFQD [K39L], which abundance fitness is on record?
Answer: Its abundance fitness is -0.487 ± 0.067.

Question: Which abundance fitness does the source give for EYSEEELKTHISKGTLGKFTVPMLKEACRAYGLKSGLKYQELLEALTKHFQD [K39Y] here?
Answer: The abundance fitness was -0.652 ± 0.077.

Question: For EYSEEELKTHISKGTLGKFTVPMLKEACRAYGLKSGLKFQELLEALTKHFQD [K39F], which abundance fitness is on record?
Answer: Its abundance fitness is -0.857 ± 0.2.

Question: For EYSEEELKTHISKGTLGKFTVPMLKEACRAYGLKSGLKEQELLEALTKHFQD [K39E], which abundance fitness is on record?
Answer: Its abundance fitness is -0.658 ± 0.068.
